Measurements published in publication PMC2736550 (Molecular microbiology, 2008).

How the values were obtained:
Test in all cases: biochemical
IutA = IutA (Escherichia coli, UniProt A0A0H2VAM3)
Hma = Hma (Escherichia coli, UniProt A0A0H2V8J2)
ChuA = ChuA (Escherichia coli, UniProt A0A0H2VC22)

For C=CC1=C(C)C2=Cc3c(C=C)c(C)c4[n]3[Fe]([Cl])[n]3c(c(C)c(CCC(=O)O)c3=CC3=NC(=C4)C(C)=C3CCC(=O)O)=CC1=N2 [hemin], the Kd (IutA) was 90 µM, the Kd (Hma) was 8 µM and the Kd (ChuA) was 8 µM.
